Results reported in patent US11766420B2 (priority 2015, dated 2023).

Amino acid sequences for entries named in this document (tags omitted). A change or cut given only in a name is not applied to a line headed by its entry.
UniProt P05067: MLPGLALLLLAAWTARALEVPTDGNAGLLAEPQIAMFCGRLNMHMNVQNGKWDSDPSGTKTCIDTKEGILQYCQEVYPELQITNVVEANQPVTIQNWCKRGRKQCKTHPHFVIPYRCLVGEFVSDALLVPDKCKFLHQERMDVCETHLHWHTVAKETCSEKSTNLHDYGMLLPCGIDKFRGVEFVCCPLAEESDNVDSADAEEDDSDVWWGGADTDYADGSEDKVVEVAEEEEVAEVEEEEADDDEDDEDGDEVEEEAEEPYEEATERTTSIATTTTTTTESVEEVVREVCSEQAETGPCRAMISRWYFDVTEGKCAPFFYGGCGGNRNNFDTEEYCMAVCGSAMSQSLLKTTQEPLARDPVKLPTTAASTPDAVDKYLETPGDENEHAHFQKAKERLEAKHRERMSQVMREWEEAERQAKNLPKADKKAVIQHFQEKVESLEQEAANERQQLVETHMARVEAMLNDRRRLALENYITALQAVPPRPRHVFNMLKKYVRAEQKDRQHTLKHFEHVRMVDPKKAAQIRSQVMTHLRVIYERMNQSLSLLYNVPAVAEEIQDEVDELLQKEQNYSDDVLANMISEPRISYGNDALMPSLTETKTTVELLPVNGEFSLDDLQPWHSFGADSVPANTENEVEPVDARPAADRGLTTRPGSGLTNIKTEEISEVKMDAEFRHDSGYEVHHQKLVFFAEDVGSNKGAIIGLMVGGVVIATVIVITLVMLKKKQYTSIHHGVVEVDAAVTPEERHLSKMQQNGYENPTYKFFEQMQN

Legend:
[1] = target: Aβ42 (Homo sapiens, UniProt P05067); experiment: Liposome experiment: Aβ42 aggregation/oligomerization (immunoblot)
[2] = tested on: wild type flies; experiment: Toxicity of PAO on living flies (fly food from embryonic stage)
[3] = tested on: dissected Drosophila third instar larvae; experiment: Toxicity of PAO on dissected Drosophila third instar larvae; settings: Schneider's medium, 25° C. overnight
[4] = tested on: C57BL/6 mice; experiment: Toxicity of PAO oral gavage on mice
[5] = tested on: APP/PS1 mice; experiment: Novel object recognition test (NOR) in APP/PS1 mice; settings: 18 month-age APP/PS1 mice, 0.3 mg/kg gavage, 8 months, 10 mice per group; same in water group

phosphatidylinositol 4-phosphate
Facilitation effect on Aβ42 aggregation in liposomes compared with PI and PIP2 [1]: significantly stronger than PI and PIP2
Facilitation effect on oligomerization of Aβ42 at 80 jμM ([1]; 80 jμM versus 40 jμM): decreases as compared to a concentration of 40 jμM
Oligomerization of Aβ42 in liposome ([1]; different concentrations): facilitates the oligomerization of Aβ42 in liposome in a concentration dependent manner

O=[As]c1ccccc1 (stereo not shown)
Concentration in fly food that neither changed the eclosion rate nor altered the climbing ability [2]: ≤ 200 µM
Concentration at which salivary gland cells and CNS neurons turned white (damage) [3]: ≥ 0.3 µM
Concentration without damage to salivary gland cells and CNS neurons [3]: ≤ 0.15 µM
Survival after gavage at 2.0 mg/kg ([4]; once a day Monday through Friday, two consecutive weeks, five mice): all five mice survived
Survival after gavage at 4.5 mg/kg ([4]; once a day for five consecutive days, five mice): four mice out of five survived
Survival after gavage at 18, 10 and 6 mg/kg ([4]; two mice for each dose level): All mice were found dead on the second day
Deaths during prolonged administration [5]: two mice were dead in each group
